The target in the assay is CD147 receptor on rat cortical neuronal cultures (rat) (UniProt P26453). Kind of assay: cell-based or functional assay.

By UniProt entry, the sequences of proteins in these tests, tags left out. Residues count along the entry.
UniProt P26453, 23-388: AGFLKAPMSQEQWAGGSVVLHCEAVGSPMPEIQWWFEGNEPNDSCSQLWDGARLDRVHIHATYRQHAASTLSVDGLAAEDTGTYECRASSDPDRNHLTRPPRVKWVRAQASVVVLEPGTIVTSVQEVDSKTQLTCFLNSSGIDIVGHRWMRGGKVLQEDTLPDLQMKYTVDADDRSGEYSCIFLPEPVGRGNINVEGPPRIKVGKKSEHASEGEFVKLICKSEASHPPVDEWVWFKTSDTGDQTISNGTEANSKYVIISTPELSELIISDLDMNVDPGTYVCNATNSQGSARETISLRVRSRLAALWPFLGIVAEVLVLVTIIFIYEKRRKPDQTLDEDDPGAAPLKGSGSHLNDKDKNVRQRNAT

Data on 1 substance can be found in US20080145340A1, “Neuroactive agents and methods of their use” (The University of Western Australia, priority 2005, published 2008).

For the substance “recombinant human cyclophilin A (from UniProt P62937 1-165) (ligand)”, the ERK1 (p44) activation at 5 min, rhCyPA 100 nM, immunoblot densitometry stood at 2.6 fold; the ERK2 (p42) activation at 5 min, rhCyPA 100 nM, immunoblot densitometry is 3.3 fold; the neuronal survival after cumene exposure, CyPA 10 nM (MTS assay; 15% without CyPA) worked out at 56%; the neuronal survival after cumene exposure, CyPA 100 nM (MTS assay; 15% without CyPA) turned out to be 70%. The neuronal survival after in vitro ischemia, rhCyPA 100 nM (MTS assay; 24% without CyPA) came out at 35%.
